Patent US10993433B2, “Method of producing in vitro testicular constructs and uses thereof” (Wake Forest University Health Sciences, priority 2015, dated 2021)

Tested on: 3D human testicular organoids
Assay: Testosterone production (ELISA) after hCG stimulation
Format: cell-based
Settings: per 100,000 cells
Protocol: Organoid androgen production was measured using a testosterone high sensitivity ELISA kit (ENZO Testosterone high sensitivity 96-well enzyme immunosorbent assay kit; Enzo Life Sciences, Farmingdale, N.Y.) according to the manufacturer's instructions. The minimum detectible limit was 3.9 pg/mL A total of 20 organoids per time point were used in this assessment, wherein half were stimulated with 2 nM hCG for 3 hours. Following incubation, cell culture supernatant was collected from stimulated and nonstimulated organoids and concentrated 4× using an Eppendorf® Vacufuge®. All samples were assayed in duplicate. A standard curve was generated and used to determine testosterone concentrations. Testosterone levels were determined via optical density at 405 nm wavelength absorbance.
To test the ability of 3D human testicular organoids to produce androgens and respond to androgen stimulation in vitro, culture supernatant was measured for total testosterone (n=10) concentration per 100,000 cells before and after stimulation with 2 ng/mL hCG for 3 hours. At day 2, nonstimulated testosterone concentrations were 97.168±17.471 pg/mL, whereas after hCG stimulation, concentrations were 151.325±11.592 pg/mL (FIG. 6F).

hCG: hormone used to stimulate organoid androgen (testosterone) production
testosterone concentration after hCG stimulation (day 2, 2 ng/mL hCG for 3 hours, n=10): 151.325 ± 11.592 pg/mL | testosterone concentration after hCG stimulation (day 9, repeated hCG stimulation): 105.958 ± 2.556 pg/mL | testosterone concentration after hCG stimulation (day 16, repeated hCG stimulation): 91.008 ± 14.764 pg/mL | testosterone concentration after hCG stimulation (day 23, repeated hCG stimulation): 98.83 ± 3.495 pg/mL
